From PubChem
A selection: hits, their analogues and other compounds. The true share with any hit is near 0.7%.
HCMV UL50-53 inh: disrupts HCMV UL50-UL53 complex binding | actives 0.15% (n = 190,000) | HTRF UL50-UL53 interaction, normalized percent inhibition | inhibition, % (concentration not given with the values); in the data active means inhibition above about 27%, passing the limit was not always enough
Sa growth 42C: blocks Staphylococcus aureus growth; S. aureus RN4220 growth, OD600, 20 h, 42 °C; stronger effect = lower value; relative growth, % (no concentration beside the values); actives 0.53% (n = 170,000); AID 720641;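 active means relative growth at most 50% at the other temperature and 20+ points below 30 °C, or under 10% at both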
GIV Gai3 FP: blocks GIV peptide binding to rat Galpha-i3. P08753. Galpha-i3/FITC-GIV peptide fluorescence polarization, 90 min; hits give low values; scaled: aluminum fluoride 0%, vehicle 100%. percent of control (FP), % (concentration not given with the values). actives 0.42% (n = 210,000). AID 1224905;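 active = replicate mean at 85% of control or lower, very high polarization wells dropped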;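 also: wells of about 15 µL received 100 nL stock; the first replicate is given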
Of the large screens only hits and unclear results are named; the others gave an inactive call.

O=C(Nc1ccc2ccccc2c1)c1ccco1	none
COc1cccc(C2=CC(c3ccccc3F)n3ncc(C(=O)Nc4ccc(F)cc4)c3N2)c1 (stereo not drawn)	GIV Gai3 FP -60 (no result: HCMV UL50-53 inh)
COc1ccc(C2=CC(c3ccccc3F)n3ncc(C(=O)Nc4ccc(C)cc4)c3N2)cc1 (stereo not drawn)	none (no result: HCMV UL50-53 inh)
CCN1CCCC1CNCc1cc(=O)n2ccc(C)cc2n1 (stereo not drawn)	none (no result: GIV Gai3 FP)
CCCN(CCC)C(=O)Cn1c(=O)n(-c2ccccc2)c(=O)c2c1c1cc(OC)ccc1n2C	none (no result: Sa growth 42C)
CCCCS(=O)c1sc2nc(-c3cccs3)cc(-c3ccccc3)c2c1N (stereo not drawn)	Sa growth 42C 12 (no result: HCMV UL50-53 inh)
CS(=O)(=O)c1sc2nc(-c3cccs3)cc(-c3ccccc3)c2c1N	none (no result: HCMV UL50-53 inh, Sa growth 42C)
Nc1c(NC2CCN(Cc3ccccc3)CC2)c2ccccc2oc1=O	none (no result: HCMV UL50-53 inh)
c1ccc(-n2nnnc2Oc2cccc3cccnc23)cc1	Sa growth 42C -0.3 (no result: HCMV UL50-53 inh)
c1ccc(-n2nnnc2OCCOc2nnnn2-c2ccccc2)cc1	none
O=c1[nH]c(=O)n(C2C[C@@H](O)[C@@H](CO)O2)cc1F (stereo partly drawn)	Sa growth 42C -0.7 (no result: GIV Gai3 FP)
O=c1[nH]c(=O)n([C@H]2C[C@H](O)C(CO)O2)cc1I (stereo partly drawn)	none (no result: Sa growth 42C, GIV Gai3 FP)
Cc1ccc(Cc2cn3cc(-c4ccc(F)cc4)nc3s2)cc1	none
Cc1ccc(Cc2c[nH]c(=S)s2)cc1	Sa growth 42C 23 (no result: GIV Gai3 FP)
O=C(CSc1nnc(NC(=O)c2ccc(S(=O)(=O)N3CCOCC3)cc2)s1)Nc1nccs1	none (no result: HCMV UL50-53 inh, Sa growth 42C)
CSCON1C(=O)CN(C(C)=O)C1c1ccc(Cl)cc1Cl (stereo not drawn)	none (no result: HCMV UL50-53 inh, Sa growth 42C)
COc1ccc(/C=C2/C(=O)NC(=O)N(c3ccc(Br)cc3)C2=O)c(OC)c1	none (no result: Sa growth 42C)
COc1ccc(CN2C(=O)NC(=O)/C(=C\c3cc(OC)ccc3OC)C2=O)cc1	HCMV UL50-53 inh 83 (no result: Sa growth 42C)
CCOC(=O)C1=C(C)N=c2s/c(=C\c3cc(Br)c(O)c(OC)c3)c(=O)n2C1c1ccc2c(c1)OCO2 (stereo not drawn)	GIV Gai3 FP -57 (no result: Sa growth 42C)
CCOC(=O)C1=C(C)N=c2s/c(=C\c3cc(Br)c(OC)cc3OC)c(=O)n2C1c1cccs1 (stereo not drawn)	none (no result: Sa growth 42C)
CCOC(=O)C1=C(C)N=c2s/c(=C\c3cc(OC)c(OC)c(OC)c3)c(=O)n2C1c1ccc2c(c1)OCO2 (stereo not drawn)	none (no result: Sa growth 42C)
CCOC(=O)C1=C(C)N=c2s/c(=C\c3cc(Br)c(O)c(OC)c3)c(=O)n2C1c1cccs1 (stereo not drawn)	GIV Gai3 FP 77 (no result: Sa growth 42C)
Nn1cnc2c(c1=O)C1(CCCC1)Cc1ccccc1-2	none (no result: HCMV UL50-53 inh, Sa growth 42C)
CC(Sc1nncn1-c1ccccc1)C(=O)N1CCc2ccccc21 (stereo not drawn)	none (no result: GIV Gai3 FP)
Cc1ccc2nc(NC(=O)c3ccc(S(=O)(=O)N4CCc5ccccc54)cc3)sc2c1	none (no result: Sa growth 42C)
Cc1ccc(C)c(-c2nnc(NC(=O)c3cccc(S(C)(=O)=O)c3)o2)c1	Sa growth 42C 5.5
Cc1ccc(C)c(-c2nnc(NC(=O)c3ccc(S(=O)(=O)N4CCc5ccccc54)cc3)o2)c1	Sa growth 42C 1.9
Cc1ccc(NC(=O)c2cccc(S(C)(=O)=O)c2)cc1	none (no result: GIV Gai3 FP)
Cc1cc(C(=O)Cn2cnc3sc4c(c3c2=O)CCC(C)C4)c(C)n1Cc1ccco1 (stereo not drawn)	none (no result: GIV Gai3 FP)
Cc1ccc(OC(=O)c2cc(-c3ccc4c(c3)OCCO4)on2)cc1C	Sa growth 42C 2.2
Cc1cccc(OC(=O)c2cc(-c3ccc(C)c(C)c3)on2)c1	Sa growth 42C 0.8
COc1ccc(-c2cc(C(=O)Oc3ccc(C)c(C)c3)no2)cc1	none (no result: Sa growth 42C)
Cc1cc(OC(=O)c2cc(-c3ccc4c(c3)OCCO4)on2)ccc1Cl	none
CCCn1cnc2cc(NCc3ccc(Br)cc3)ccc21	Sa growth 42C 0.3
CCCn1cnc2cc(NCc3ccncc3)ccc21	none (no result: HCMV UL50-53 inh)
CCCn1cnc2cc(NCc3ccc(Cl)cc3Cl)ccc21	Sa growth 42C 0.5 (no result: HCMV UL50-53 inh)
Cc1ccc(CNc2ccc3c(c2)ncn3C2CCCCC2)cc1	Sa growth 42C -0.5 (no result: HCMV UL50-53 inh)
Oc1ccccc1CNc1ccc2c(c1)ncn2C1CCCCC1	none
CCCCn1cnc2cc(NCc3ccc(Br)cc3)ccc21	Sa growth 42C 7.6 (no result: HCMV UL50-53 inh)
CCCCn1cnc2cc(NCc3cc(OC)c(OC)c(OC)c3)ccc21	none
CCCn1cnc2cc(NCc3ccccc3O)ccc21	none (no result: HCMV UL50-53 inh)
CC(=Nc1ccc(S(=O)(=O)N2CCCC2)cc1)c1ccccc1	none (no result: GIV Gai3 FP)
O=C(NCCc1ccccc1)C1CCN(C(=O)N2CCOc3ccc(Cl)cc32)CC1	none (no result: Sa growth 42C)
O=C(Nc1ccc(F)cc1)Oc1ccccc1N1CCOCC1	none
O=C(Nc1ccc(OC(F)(F)F)cc1)Oc1ccccc1N1CCOCC1	Sa growth 42C 3.7
Cc1c(C(=O)Nc2ccc(N3CC(C)OC(C)C3)nc2)cccc1-c1ccc(OC(F)(F)F)cc1 (stereo not drawn)	none (no result: Sa growth 42C, GIV Gai3 FP)
CC1CN(c2ccccc2OC(=O)Nc2ccc(OC(F)(F)F)cc2)CC(C)O1 (stereo not drawn)	Sa growth 42C 3.0
CSc1ccc(N2C(C)=NS(=O)(=O)c3cccnc32)cc1	none (no result: HCMV UL50-53 inh, Sa growth 42C)
O=C(OCCCn1c(=O)[nH]c2ccccc21)c1ccc2c(=O)n3c(nc2c1)CCCCC3	none (no result: GIV Gai3 FP)
O=C(CSc1nnc(-c2cccnc2)n1-c1ccc(Br)cc1)c1c[nH]c2ccccc12	none (no result: HCMV UL50-53 inh, Sa growth 42C)
CCSc1nc2ccccc2s1	none (no result: GIV Gai3 FP)
CCSc1ccc(SC#N)s1	Sa growth 42C -0.4
CN(Cc1ccccc1)C(=O)c1cc2c(=O)oc3ccccc3c2n1C	none (no result: Sa growth 42C)
Cc1cc(=S)nc(C(C)C)[nH]1	Sa growth 42C 28 (no result: GIV Gai3 FP)
Cc1cc(C)[nH]c(=S)n1	none (no result: GIV Gai3 FP)
CO[C@@H]1[C@@H](OC(N)=O)[C@@H](O)[C@H](Oc2ccc3c(O)c(NC(=O)c4ccc(O)c(CC=C(C)C)c4)c(=O)oc3c2C)OC1(C)C	Sa growth 42C -0.8 (no result: GIV Gai3 FP)
COc1ccc(C(=O)Nc2c(O)c3ccccc3oc2=O)cc1OC	none
Cn1c(=O)c2c(nc(SCc3nc(N)nc(N4CCOCC4)n3)n2C)n(C)c1=O	none (no result: HCMV UL50-53 inh, Sa growth 42C)
Cc1cc(C)c2c(-n3cccc3)c(C(=O)NCCc3ccc(S(N)(=O)=O)cc3)sc2n1	none
CC(=O)N1CCc2c(sc(NC(=O)c3ccc(C#N)cc3)c2C#N)C1	none (no result: Sa growth 42C, GIV Gai3 FP)
CCCN1CCc2c(sc(NC(=S)NC(=O)c3ccccc3)c2C#N)C1	GIV Gai3 FP -59 (no result: HCMV UL50-53 inh)
C=CCNc1nc(C(=O)OCc2ccc(C#N)cc2)cs1	none (no result: GIV Gai3 FP)
C=C(C)C1Cc2cc3ccc(=O)oc3cc2O1 (stereo not drawn)	none (no result: GIV Gai3 FP)
C=C(C)C1Cc2cc(/C=C/C(=O)O)c(O)cc2O1 (stereo not drawn)	Sa growth 42C 0.5
N#CCOc1nc(OCC#N)nc(OCC#N)n1	Sa growth 42C 28
COc1nc(OCC#N)nc(N(C)C)n1	none
C=CCN(CC=C)S(=O)(=O)c1ccc(C(=O)Nc2nnc(-c3ccc(OC)cc3OC)o2)cc1	none
COc1cccc(-c2nnc(NC(=O)c3ccc(S(=O)(=O)N(C)C)cc3)o2)c1	none (no result: HCMV UL50-53 inh)
COc1cccc(-c2nnc(NC(=O)c3ccc(S(=O)(=O)N4CCCCC4C)cc3)o2)c1 (stereo not drawn)	Sa growth 42C 2.4 (no result: HCMV UL50-53 inh)
CC(C)N(Cc1ccccc1)S(=O)(=O)c1ccc(C(=O)Nc2nnc(-c3cccs3)o2)cc1	Sa growth 42C 7.3
COc1ccc(-c2nnc(NC(=O)c3ccc(S(=O)(=O)N4CCCCC4)cc3)o2)cc1	none
COc1cccc(-c2nnc(NC(=O)c3ccc(S(=O)(=O)N(Cc4ccccc4)C(C)C)cc3)o2)c1	Sa growth 42C 0.4
